In PMC3522735, “Virtual Screening and Biological Evaluation of Inhibitors Targeting the XPA-ERCC1 Interaction” (2012) one finds Kd data, which are given here for two compounds.

Amino acid sequences for entries named in this document (tags omitted). Residues count along the entry.
UniProt P07992, 92-214 limits assumed: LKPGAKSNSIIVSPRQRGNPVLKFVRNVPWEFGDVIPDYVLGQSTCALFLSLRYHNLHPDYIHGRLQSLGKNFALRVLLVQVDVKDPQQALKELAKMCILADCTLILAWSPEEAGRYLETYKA

The target of this test is ERCC1 (Homo sapiens, UniProt P07992). In words: intrinsic tryptophan fluorescence quenching (excitation […] nm).

As to `O=C(/C=C/c1ccc([N+](=O)[O-])s1)Nc1ccc([N+](=O)[O-])cc1[N+](=O)[O-]`, the Kd amounted to 27.4 µM.

Compound `O=c1c([N+](=O)[O-])c(-c2ccc([N+](=O)[O-])cc2)oc2ccc([N+](=O)[O-])cc12` yielded a Kd of 66.8 µM.
